The source of these data is ChEMBL document CHEMBL1128307, “2-Aralkynyl and 2-heteroalkynyl derivatives of adenosine-5'-N-ethyluronamide as selective A2a adenosine receptor agonists” (J Med Chem, 1995).

Chains of the proteins cited; added tags and fusions are not shown.
UniProt P25099, whole entry: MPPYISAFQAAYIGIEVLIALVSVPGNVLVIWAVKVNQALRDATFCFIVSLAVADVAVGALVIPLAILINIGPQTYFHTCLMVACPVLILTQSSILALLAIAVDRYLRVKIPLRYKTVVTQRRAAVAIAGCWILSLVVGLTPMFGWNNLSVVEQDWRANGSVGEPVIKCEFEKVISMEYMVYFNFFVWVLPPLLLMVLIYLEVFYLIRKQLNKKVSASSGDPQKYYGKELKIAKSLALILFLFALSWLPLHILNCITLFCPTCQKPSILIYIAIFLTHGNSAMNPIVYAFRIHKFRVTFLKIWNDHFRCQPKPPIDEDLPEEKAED

The target of assay [1] is T1, Adenosine receptor A1 (Rattus norvegicus, UniProt P25099). Briefly: Functional activity against adenosine A1 receptor from rat atria.
For assay [2], the target named is T1, Adenosine receptor A1.

The term EC50 denotes the midpoint of the concentration-response curve. A low value points to an effect from little substance. As usually defined, the Ki is the dissociation constant of the complex between target and ligand, obtained from inhibition or displacement. Higher therefore signals lower affinity. Regarding `CCNC(=O)[C@H]1O[C@@H](n2cnc3c(N)nc(NCCc4ccc(CCC(=O)O)cc4)nc32)[C@H](O)[C@@H]1O` [CGS-21680], in assay [1], the concentration giving a half-maximal response (EC50) was > 10000 nM. For the same compound, in assay [2], the Ki turned out to be 569 nM.
